Experimental data published in paper PMC11334105, “Contribution of Noncovalent Recognition and Reactivity to the Optimization of Covalent Inhibitors: A Case Study on KRas^G12C” (ACS Chemical Biology, 2024).

Molecular target: KRAS^G12C (Homo sapiens, UniProt P01116, G12C)
Assay: LC-MS occupancy measurements (KI and kinact determination)
Format: binding
Settings: for kinact: fit of kobs vs concentration, MS occupancy, mean ± SD, n = 2

Row | SMILES | kinact/KI | kinact
1 | CN1CCCC1COc1nc(N2CCN(C(=O)C3CN3)CC2)c2cc(Cl)c(-c3c(O)cccc3F)cc2n1 (stereo not shown) [4b, Aziridin-2-yl(4-(6-chloro-7-(2-fluoro-6-hydroxyphenyl)-2-((1-methylpyrrolidin-2-yl)methoxy)quinazolin-4-yl)piperazin-1-yl)methanone] | 15.2 ± 4.9 M⁻¹ s⁻¹ | 1.7 ± 0.30 0.001 s^–1
2 | O=C(C1CN1)N1CCN(c2ncnc3cc(-c4c(O)cccc4F)c(Cl)cc23)CC1 (stereo not shown) [4a, Aziridin-2-yl(4-(6-chloro-7-(2-fluoro-6-hydroxyphenyl)quinazolin-4-yl)piperazin-1-yl)methanone] | 4.1 ± 0.3 M⁻¹ s⁻¹ | 0.091 ± 0.002 0.001 s^–1
